# Literature values, collected in publication PMC5997768 (2018).
# Where two headings read alike, the source gives them in different places. Only a part of the results on these compounds is given; other tests are left out.
# How the values were obtained:
# [1] = cited from earlier work; for pKa: experimentally determined
# [2] = calculated value, no experimental value available; cited from earlier work
SMILES,pKa [1],pKa [2],Experimentally obtained pKa at 25 °C ([1]; 25 °C)
CCC(=O)N(c1ccccc1)C1(COC)CCN(CCc2cccs2)CC1,7.85,–,–
CCC(=O)N(c1ccccc1)C1(COC)CCN(CCn2nnn(CC)c2=O)CC1,–,7.82,–
CCC(=O)N(c1ccccc1)C1(C(=O)OC)CCN(CCC(=O)OC)CC1,–,7.51,–
CCC(=O)N(c1ccccc1)C1CCN(CCc2ccccc2)CC1,8.43,–,8.43
